In publication PMC6356585 (Viruses, 2018):

Columns and labels:
[1] = test system: C6/36 cells; format: cell-based, Ae. albopictus; details: 10 µM compound, 96 h, CellTiter-Glo; ± SEM, three independent trials
[2] = test system: Vero cells; experiment: Cell viability (CellTiter-Glo) of Vero cells; format: cell-based; details: 10 µM compound, 40 h, ± SEM, three independent trials

Penitrem A
C6/36 Viability [1]: 43 ± 8.1% of untreated control | Vero Viability [2]: 78.3 ± 6.4% of untreated control
